The text below walks through data of US20230303647A1, “CYCLIC CHEMERIN-9 DERIVATIVES” (priority 2020, published 2023).

The target in experiment [1] is T1, CMKLR1 (Homo sapiens, UniProt Q99788).
T1 sequence (Q99788 1-373): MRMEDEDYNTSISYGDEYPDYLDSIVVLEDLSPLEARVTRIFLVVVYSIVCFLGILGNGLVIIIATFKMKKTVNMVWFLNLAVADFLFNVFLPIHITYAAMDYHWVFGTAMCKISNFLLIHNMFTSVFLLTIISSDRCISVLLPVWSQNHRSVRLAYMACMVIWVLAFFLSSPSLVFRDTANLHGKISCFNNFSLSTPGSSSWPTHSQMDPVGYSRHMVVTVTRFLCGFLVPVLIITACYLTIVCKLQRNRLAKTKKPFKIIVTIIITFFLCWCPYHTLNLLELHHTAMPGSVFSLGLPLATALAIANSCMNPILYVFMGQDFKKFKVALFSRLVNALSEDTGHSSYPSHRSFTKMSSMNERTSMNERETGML
Nature of the experiment: Ca2+ mobilization assay (G protein-mediated signaling).

Experiment [2] concerns the target T1, CMKLR1. Nature of the experiment: BRET-based arrestin 3 recruitment assay. The following applies: CMKLR1-eYFP and Rluc8-arrestin 3, 15 min after agonist addition.

As to `C[C@@H]1NC(=O)[C@H](Cc2ccccc2)NC(=O)[C@H](CCC(N)=O)NC(=O)[C@H](NC(=O)[C@@H]2CCCN2C(=O)[C@H](Cc2ccccc2)NC(=O)[C@H](Cc2ccc(O)cc2)NC(=O)CCOCCOCCOCCOCCN)CCSSC[C@@H](C(=O)O)NC(=O)[C@H](Cc2ccccc2)NC1=O` [$$ 16, EG4-[x4,C9]-chemerin-9], the 50% effective concentration (EC50) was 17.1 nM on CMKLR1 [1]; 101 nM at CMKLR1 [2] (EC50, HEK293 cells); 158 nM on CMKLR1 [2] (pEC50 ± SEM, HEK293 cells).
